In patent US20250368625A1, “PIPERAZINES” (Grünenthal GmbH, priority 2024, published 2025) one finds EC50 data, which are given here for 5 compounds.

Amino acid sequences for entries named in this document (tags omitted).
UniProt P31391, whole entry: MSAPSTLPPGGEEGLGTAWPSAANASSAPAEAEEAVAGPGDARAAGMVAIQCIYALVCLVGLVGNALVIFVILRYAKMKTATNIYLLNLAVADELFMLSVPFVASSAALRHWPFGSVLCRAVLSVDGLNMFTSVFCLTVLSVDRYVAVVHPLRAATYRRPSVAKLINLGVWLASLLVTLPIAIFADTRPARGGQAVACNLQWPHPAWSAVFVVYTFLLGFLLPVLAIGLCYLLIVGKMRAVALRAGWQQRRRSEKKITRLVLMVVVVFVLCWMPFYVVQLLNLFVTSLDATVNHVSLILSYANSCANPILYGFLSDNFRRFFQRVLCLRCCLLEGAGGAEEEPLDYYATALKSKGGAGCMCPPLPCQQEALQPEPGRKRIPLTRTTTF

For this experiment, the target named is human SSTR4 (Homo sapiens, UniProt P31391). The experiment in a line: hSSTR4 cAMP assay (cAMP accumulation, LANCE Ultra cAMP kit, CHO-K1 human SSTR4 Gi cell line). The experiment is classed as cell-based. As to conditions: read-out: hSSTR4 EC50 nM (Comparative Example); morpholinyl matched molecular pairs (from WO 2016 075240); same cAMP assay conditions. Background: Cyclic AMP is a second messenger, typically raised through Gs and lowered through Gi signalling.

For orientation: EC50 means the concentration giving half of the maximal effect. Take `Cc1cccc2c(C(C)(C)NC(=O)C3CNCCO3)nn(C)c12` (centres unmarked): the EC50 amounted to 15 nM.
With `Cc1cccc2c(C(C)(C)NC(=O)C3CNCCO3)n[nH]c12` (centres unmarked) the figure was 1.3 nM.
Regarding `CC(C)(NC(=O)C1CNCCO1)c1n[nH]c2c(F)cccc12` (centres unmarked), the EC50 turned out to be 34 nM.
Consider `COc1cccn2c(C(C)(C)NC(=O)C3CNCCO3)ncc12` (centres unmarked), for which the EC50 came out at 107 nM.
The result for `Cc1cccn2c(C(C)(C)NC(=O)C3CNCCO3)ncc12` (centres unmarked) reads 12 nM.
